The target of this assay is Histone deacetylase 9 (Homo sapiens, UniProt Q9UKV0).

By UniProt entry, the sequences of proteins in these tests, tags left out. Where a name states a change or a piece, a line headed by the entry shows the natural chain unless it says otherwise.
UniProt Q9UKV0: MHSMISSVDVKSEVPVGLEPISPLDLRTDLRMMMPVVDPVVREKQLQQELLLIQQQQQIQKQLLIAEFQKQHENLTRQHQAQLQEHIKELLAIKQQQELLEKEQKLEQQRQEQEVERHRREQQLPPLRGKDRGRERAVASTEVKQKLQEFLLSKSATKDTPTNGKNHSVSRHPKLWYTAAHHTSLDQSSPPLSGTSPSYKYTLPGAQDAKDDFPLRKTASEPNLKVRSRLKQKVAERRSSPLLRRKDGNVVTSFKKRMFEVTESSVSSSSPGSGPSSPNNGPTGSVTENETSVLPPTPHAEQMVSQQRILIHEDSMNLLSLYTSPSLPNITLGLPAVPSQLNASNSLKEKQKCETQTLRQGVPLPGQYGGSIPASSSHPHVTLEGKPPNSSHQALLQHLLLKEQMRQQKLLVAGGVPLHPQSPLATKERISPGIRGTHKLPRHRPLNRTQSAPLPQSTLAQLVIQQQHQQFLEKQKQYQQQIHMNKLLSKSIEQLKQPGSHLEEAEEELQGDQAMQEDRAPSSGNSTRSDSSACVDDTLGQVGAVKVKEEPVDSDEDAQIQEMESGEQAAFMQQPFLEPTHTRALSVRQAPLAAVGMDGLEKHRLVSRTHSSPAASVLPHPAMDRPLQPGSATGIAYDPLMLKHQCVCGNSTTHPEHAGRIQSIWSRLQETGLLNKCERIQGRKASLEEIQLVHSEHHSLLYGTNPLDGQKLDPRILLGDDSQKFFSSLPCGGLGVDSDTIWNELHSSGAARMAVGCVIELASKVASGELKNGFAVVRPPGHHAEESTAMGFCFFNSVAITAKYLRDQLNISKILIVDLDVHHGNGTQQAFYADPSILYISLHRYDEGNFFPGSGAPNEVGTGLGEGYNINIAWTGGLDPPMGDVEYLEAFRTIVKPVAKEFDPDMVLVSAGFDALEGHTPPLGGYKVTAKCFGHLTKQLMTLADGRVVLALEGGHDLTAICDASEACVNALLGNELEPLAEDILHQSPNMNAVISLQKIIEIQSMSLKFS

As for `CC(/C=C/C(=O)NO)=C\[C@@H](C)C(=O)c1ccc(N(C)C)cc1` [TRICHOSTATIN], the inhibition constant Ki was determined as 800 nM.

The values above are taken from ChEMBL document CHEMBL1212811, “Chemical phylogenetics of histone deacetylases” (Nat Chem Biol, 2010).
